The data set can be described thus: Pharmacokinetic study in sham and myocardial ischemia model rats after a single oral dose of QSKL (UHPLC-psMS/MS of plasma, non-compartmental analysis). Conditions: for distribution in rat plasma (quantifiable or not): QSKL-treated plasma samples, sham and model rats, single oral dose 8.0 g/kg; for AUC0–t / AUC0–∞ / Cmax / MRT / Tmax / t1/2: oral administration of QSKL, plasma, mean ± SD, n = 6.

Where [1] appears, read: model group (MG, myocardial ischemia) rats.

What is called Cmax is the highest concentration seen after dosing. By MRT is commonly meant a mean duration of stay, worked out from the concentration-time curve. The Tmax is the time at which the peak concentration occurs. On to harpagide, for which the “distribution in rat plasma (quantifiable or not)” value is given as “quantifiable in most samples”. For the same substance, under setting [1], the “AUC0–t” value amounted to 6.17 ± 3.32 ng·h/mL, the “AUC0–∞” value is 6.88 ± 3.71 ng·h/mL, the Cmax worked out at 2.83 ± 2.59 ng/mL and the MRT came to 7.46 ± 3.49 h. Also, under setting [1], the Tmax amounted to 0.67 ± 0.52 h and the t1/2 was found to be 6.42 ± 2.99 h. Where the note is “sham group (SG) rats”, the “AUC0–t” value worked out at 2.87 ± 1.16 ng·h/mL, the “AUC0–∞” value is 3.63 ± 1.31 ng·h/mL, the Cmax turned out to be 0.590 ± 0.294 ng/mL and the MRT worked out at 14.1 ± 3.84 h. For the same substance, for the setting “sham group (SG) rats”, the Tmax was determined as 1.25 ± 1.01 h and the t1/2 is on record as 8.65 ± 2.06 h.

As for liquiritin apioside, the “distribution in rat plasma (quantifiable or not)” value is “quantifiable in most samples”. Further, under setting [1], the “AUC0–t” value amounted to 3.59 ± 2.08 ng·h/mL, the “AUC0–∞” value is 4.16 ± 2.41 ng·h/mL, the Cmax worked out at 2.39 ± 1.37 ng/mL and the MRT is 9.22 ± 6.33 h. Moreover, under setting [1], the Tmax was 0.40 ± 0.23 h and the t1/2 is reported as 8.15 ± 5.97 h. Also, under “sham group (SG) rats”, the “AUC0–t” value is listed as 2.91 ± 1.11 ng·h/mL, the “AUC0–∞” value was found to be 3.85 ± 1.38 ng·h/mL, the Cmax worked out at 0.800 ± 0.440 ng/mL and the MRT amounted to 12.5 ± 5.12 h. In addition, for the setting “sham group (SG) rats”, the Tmax was 0.36 ± 0.31 h and the t1/2 turned out to be 8.54 ± 5.59 h.

These data come from PMC6150229, “Simultaneous Determination of Twenty-Five Compounds in Rat Plasma Using Ultra-High Performance Liquid Chromatography-Polarity Switching Tandem Mass Spectrometry and Its Application to a Pharmacokinetic Study” (Molecules : A Journal of Synthetic Chemistry and Natural …, 2017).
